## Apparent affinities of Ab-14 variants for a coronavirus HR2 peptide

Values reported by Li et al. 2023, doi:10.1038/s41467-023-39022-2 (FLAb copy).

All variants were tested on one target, the spike HR2 peptide PDVDLGDISGINAS (SARS-CoV-2).

Parent: Ab-14, a human scFv built as VH, three GGGGS repeats, VL. Only the CDRs of the heavy chain vary.
VH: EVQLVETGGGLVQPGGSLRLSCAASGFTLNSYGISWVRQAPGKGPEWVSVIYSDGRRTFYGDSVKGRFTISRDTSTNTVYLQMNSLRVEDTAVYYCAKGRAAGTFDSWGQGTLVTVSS
VL: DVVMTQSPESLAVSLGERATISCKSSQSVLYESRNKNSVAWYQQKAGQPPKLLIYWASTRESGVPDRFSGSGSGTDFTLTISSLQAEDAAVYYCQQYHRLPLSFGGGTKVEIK

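The parent was found by panning a naive human phage display library on the peptide. The variants were designed computationally from a first round of random CDR variants and then made and measured. Their group label is 14H_GP_Gen (GP: Gaussian process model; Gen: genetic algorithm; a sequence that several methods proposed may carry one label only). AlphaSeq pools MATa yeast showing the antibodies with MATalpha yeast showing the peptide. The frequency of each diploid, read from paired DNA barcodes, reflects how well the two displayed proteins bind. Scores were corrected for input abundance and mapped to Kd with protein pairs of known affinity run in the same pool. Each pool was mated in six replicate cultures.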

Variants are written as CDR1, CDR2 and CDR3 of the heavy chain (limits as in the source). Parent: GFTLNSYGIS, VIYSDGRRTFYGDSVK, GRAAGTFDS. Numbers give log10(Kd / nM), so 0 is 1 nM and 3 is 1 µM. Smaller is tighter. Where no diploid with the target was found in that replicate, the entry reads "ND": below detection, most likely a poor binder, though not proof of it.

CDR-H1,CDR-H2,CDR-H3,"log10 Kd, replicates",empty controls
GFQLNEYGIS,VIYSDGRRTFYGDSVK,GRTAGTFDL,-0.11 / -0.08 / -0.38 / -0.45 / -0.66 / -0.29,0 of 18
GFDLNSYGIS,VIYSDGRRTFYDDSVK,GWAAGTFDS,0.47 / 0.75 / 0.23 / 0.30 / 0.36 / 1.00,0 of 18
GFELNSYGIS,VIYADGRRTFYGDSVK,GKAAGTFDD,0.12 / 0.42 / 0.85 / 0.53 / 0.36 / 0.49,1 of 18 (3.39)
GFELNSYGIS,VIYSDGRRTFYGDSVK,GKTAGTFDQ,1.47 / 0.58 / 0.80 / 0.44 / 1.10 / 1.03,0 of 18
KFNLNSYGIS,VIYSDGRRTFYGDSVK,GRQAGTFDS,ND / ND / ND / ND / ND / ND,0 of 18
KFSLNNYGIS,VIYSDGRRTFYGDSVK,GQTAGTFDS,ND / ND / 2.09 / 1.72 / 2.76 / 2.96,0 of 18
GFALNEYGIS,VIYSDGRRTFYGDSVK,GRMAGTFDS,-0.21 / -0.18 / -0.50 / 0.01 / -0.63 / -0.36,0 of 18
GFDLNSYGIS,VIYSDGRRTFYIDSVK,GQEAGTFDS,ND / ND / 1.20 / ND / 2.08 / ND,0 of 18
GFDLNSYGIS,VIYSDGRRTFYDDSVK,GKEAGTFDS,0.49 / 0.43 / 0.35 / 0.17 / 0.29 / 0.39,0 of 18
GFTLNEYGIS,VIYSDGRRTFYGDSVK,GQTAGTFDA,-0.17 / 0.18 / -0.32 / -0.45 / -0.33 / -0.15,0 of 18
GFHLNSYGIS,VIYSDGRRTFYADSVK,GKNAGTFDS,ND / 0.47 / -0.07 / -0.87 / 0.20 / 0.18,0 of 18
GFDLNSYGIS,VIYSDGRRTAYGDRVK,GRTAGTFDS,-0.28 / -0.79 / -0.36 / -0.55 / -0.28 / -0.69,0 of 18
GFSLNSYGIS,VIYSDGRRTFYGDMVK,GKTAGTFDS,1.96 / 1.87 / ND / 1.07 / 2.02 / 2.63,0 of 18
GFTLESYGIS,VIYSDGRRTFYQDSVK,GKAAGTFDS,0.38 / 2.26 / ND / 0.72 / 2.14 / 1.55,1 of 18 (1.37)
GFQLNEYGIS,VIYSDGRRTFYGDSVK,GKAAGTFDR,1.29 / -0.07 / 0.38 / 0.69 / 0.69 / 0.97,0 of 18
GFELNSYGIS,VIYSDGRRTFYIDSVK,GREAGTFDT,-0.29 / -0.48 / -0.25 / -0.04 / -0.20 / -0.08,0 of 18
GFELNSYGIS,VIYSDGRRTFYVDSVK,GEAAGTFDS,3.04 / 0.86 / 1.20 / 0.59 / 1.47 / 1.44,0 of 18
GFTLDSYGIS,VIYSDGRRTFYADRVK,GRTAGTFDS,1.08 / 0.65 / 0.92 / 1.01 / 0.94 / 0.90,0 of 18
GFELNSYGIS,VIYSDGRRTAYCDSVK,GRAAGTFDS,1.34 / 0.73 / 1.51 / 1.13 / 1.45 / 1.48,1 of 18 (2.37)
HFDLNSYGIS,VIYSDGRRTFYADSVK,GRQAGTFDS,ND / 0.63 / 0.55 / 0.27 / 0.88 / 0.83,0 of 18
GFDLNSYGIS,VIYSDGRRTFYGDAVK,GQTAGTFDS,0.46 / 0.12 / 0.27 / 0.21 / 0.07 / -0.08,0 of 18
GFDLNSYGIS,VIYSDGRRTFYGDSVK,GKHAGTFDS,1.05 / 0.66 / 0.72 / 0.31 / 0.78 / 0.72,0 of 18
GFELNEYGIS,VIYSDGRRTFYGDSVK,GRYAGTFDS,0.21 / 0.15 / 0.76 / 0.49 / 0.71 / 0.72,0 of 18
MFDLNSYGIS,VIYSDGRRTFYSDSVK,GEAAGTFDS,ND / 0.82 / ND / 0.47 / 0.54 / 0.62,0 of 18
GFELNSYGIS,VIYSDGKRTFYIDSVK,GRQAGTFDS,0.78 / 1.20 / 1.70 / 1.65 / 1.14 / 1.21,0 of 18
GFSLNSYGIS,VIYSDGRRTFYADDVK,GRNAGTFDS,0.33 / 0.03 / -0.39 / -0.36 / -0.17 / 0.11,1 of 18 (1.80)
GFELNEYGIS,VIYSDGRRTFYGDSVK,GRTAGTFDL,2.01 / 1.43 / 2.44 / 2.35 / 2.39 / 2.19,1 of 18 (2.11)
GFGLNEYGIS,VIYSDGRRTFYGDSVK,GRNAGTFDT,1.42 / 1.00 / 0.69 / 0.96 / 0.63 / 1.48,0 of 18
MFDLNSYGIS,VIYSDGKRTFYGDSVK,GRTAGTFDS,1.63 / 0.52 / ND / 3.01 / ND / 2.00,0 of 18
GFELNAYGIS,VIYSDGRRTFYGDSVK,GQTAGTFDS,0.77 / 1.36 / 1.02 / 0.94 / 0.35 / 0.61,0 of 18
GFSLNSYGIS,VIYSDGRRTFYSDSVK,GKLAGTFDS,0.79 / -0.17 / -0.13 / -0.27 / -0.38 / -0.02,0 of 18
GFDLNSYGIS,VIYSDGRRTFYSDSVK,GKAAGTFDV,1.00 / 1.42 / 0.61 / 0.10 / 0.70 / 0.44,0 of 18
GFSLNSYGIS,VIYSDGRRTFYGDSVK,GWAAGTFDQ,ND / 1.33 / ND / 1.48 / 1.63 / 2.14,0 of 18
SFELNSYGIS,VIYSDGRRTFYGDSVK,GKTAGTFDS,ND / ND / ND / ND / ND / ND,0 of 18
GFNLNSYGIS,VIYSDGRRTFYHDSVK,GKAAGTFDS,0.67 / 0.54 / 0.75 / 0.51 / 0.30 / 0.37,0 of 18
GFELNSYGIS,VIYADGRRTFYGDQVK,GRTAGTFDS,-0.60 / -0.59 / -0.03 / -0.94 / -0.32 / 0.45,0 of 18
GFDLNSYGIS,VIYSDGRRTFYRDSVK,GRQAGTFDS,0.93 / 0.41 / 0.89 / 0.90 / 0.81 / 0.87,0 of 18
GFNLNSYGIS,VIYSDGRRTFYGDSVK,GNQAGTFDS,0.17 / 0.10 / -0.05 / 0.11 / 0.44 / 0.24,0 of 18
GFSLNSYGIS,VIYSDGRRTFYTDSVK,GNEAGTFDS,-0.18 / -0.31 / -0.38 / -0.31 / 0.37 / 0.20,1 of 18 (1.43)
WFDLNSYGIS,VIYSDGRRTFYGDSVK,GRTAGTFDS,1.10 / 0.47 / 0.38 / 0.67 / 0.75 / 0.49,2 of 18 (2.26)
GFDLNSYGIS,VIYSDGRRTFYADSVK,GRQAGTFDT,0.08 / 0.17 / -0.20 / -0.18 / -0.18 / 0.15,1 of 18 (2.03)
GFSLNSYGIS,VIYSDGRRTFYTDSVK,GKNAGTFDS,1.01 / -0.11 / 0.59 / 0.02 / 1.23 / 0.73,0 of 18
GFHLNSYGIS,VIYSDGRRTFYGDSVK,GQEAGTFDT,1.11 / 0.98 / 1.60 / 1.36 / 1.78 / 0.88,0 of 18

The last 6 entries again:

{"CDR-H1": "GFNLNSYGIS", "CDR-H2": "VIYSDGRRTFYGDSVK", "CDR-H3": "GNQAGTFDS", "log10 Kd, replicates": "0.17 / 0.10 / -0.05 / 0.11 / 0.44 / 0.24", "empty controls": "0 of 18"}
{"CDR-H1": "GFSLNSYGIS", "CDR-H2": "VIYSDGRRTFYTDSVK", "CDR-H3": "GNEAGTFDS", "log10 Kd, replicates": "-0.18 / -0.31 / -0.38 / -0.31 / 0.37 / 0.20", "empty controls": "1 of 18 (1.43)"}
{"CDR-H1": "WFDLNSYGIS", "CDR-H2": "VIYSDGRRTFYGDSVK", "CDR-H3": "GRTAGTFDS", "log10 Kd, replicates": "1.10 / 0.47 / 0.38 / 0.67 / 0.75 / 0.49", "empty controls": "2 of 18 (2.26)"}
{"CDR-H1": "GFDLNSYGIS", "CDR-H2": "VIYSDGRRTFYADSVK", "CDR-H3": "GRQAGTFDT", "log10 Kd, replicates": "0.08 / 0.17 / -0.20 / -0.18 / -0.18 / 0.15", "empty controls": "1 of 18 (2.03)"}
{"CDR-H1": "GFSLNSYGIS", "CDR-H2": "VIYSDGRRTFYTDSVK", "CDR-H3": "GKNAGTFDS", "log10 Kd, replicates": "1.01 / -0.11 / 0.59 / 0.02 / 1.23 / 0.73", "empty controls": "0 of 18"}
{"CDR-H1": "GFHLNSYGIS", "CDR-H2": "VIYSDGRRTFYGDSVK", "CDR-H3": "GQEAGTFDT", "log10 Kd, replicates": "1.11 / 0.98 / 1.60 / 1.36 / 1.78 / 0.88", "empty controls": "0 of 18"}

The parent sequence was in this pool as ten entries: three were never detected, three once, and four in most replicates, with averages from 0.34 to 2.37. As a blank, each scFv also met three strains without target: over all heavy chain designs, 1% of these pairings were detected, typically at 2.08 and seldom below 0.84. The control count says in how many pairings with the empty strains this scFv gave a signal, with their mean in brackets. In the paper, a design with two or fewer of six values counts as a poor binder. The range of this assay differs from that of the first round, and the authors advise against merging the two.